# Measured properties of organic chemicals

Data: OPERA 2.9 data sets, kmansouri/OPERA on GitHub.

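OPERA's authors assembled the values from existing databases and did not measure them anew. One number stands for a compound and property, with no spread given. How each value was measured is not recorded, so precision varies. Where a salt, mixture or single isomer is drawn, the source does not say that exactly this form was tested. Some upstream entries may be estimates or bounds without being marked so.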

The melting point is given in degrees Celsius. Boiling points are in °C, nominally at 760 mmHg. logP is the log10 of the octanol-water partition coefficient; higher is more lipophilic. Solubility in water is on a log10 molar scale (set defined at 25 °C). Vapor pressure is log10 of mmHg; the set covers 15 to 30 °C, mostly 20 to 25 °C. The Henry's law constant is on a log10 scale in atm·m3/mol (set defined at 25 °C); higher favours air over water. fu is the fraction unbound in human plasma, from 0 to 1. Clint is human hepatic intrinsic clearance in µL/min per million cells; 0 means that no clearance was seen. "–" marks a cell with nothing listed here.

compound | name | mp (°C) | boiling point (°C) | log Kow | water solubility (log10 mol/L) | log vapor pressure (log10 mmHg) | log H (log10 atm·m3/mol) | fu | hepatic Clint (µL/min/10^6 cells)
Cc1cc(Cc2cc(C)cc(C3(C)CCCCC3)c2O)c(O)c(C2(C)CCCCC2)c1 | 2,2'-Methanediylbis[4-methyl-6-(1-methylcyclohexyl)phenol] | – | – | – | -8.147 | -8.187 | – | – | –
CCCC[C@H]1CO[C@H](c2ccc(-c3ccc(-c4cc(F)c(F)c(F)c4)c(F)c3)cc2)OC1 | – | 74.3 | – | – | -6.94 | -10.67 | – | – | –
CCN(CC)c1ccc(C=C2OC(=NC3CCCCC3)N(C3CCCCC3)C2=O)c(OC)c1 | – | 132.1 | – | – | -6.18 | -11.41 | – | – | –
c1ccc2sc(SSc3nc4ccccc4s3)nc2c1 | 2,2'-Dithiobisbenzothiazole | – | – | 4.5 | – | -9.349 | – | – | –
Cc1ccc(NS(=O)(=O)N(C)C)cc1 | N,N-Dimethyl-N'-p-tolylsulphamide | – | – | – | – | -6.238 | -9.119 | – | –
C/C=C/CC[C@H]1CC[C@H]([C@H]2CC[C@H](CCC)CC2)CC1 | – | 75.1 | 365.8 | – | -5.517 | -6.06 | – | – | –
CCCC(=O)OCn1cc2c(=O)n(COC(=O)CCC)cnc2n1 | – | – | – | 1.6 | -3.554 | – | – | – | –
CC(=O)Nc1c(I)c(C(=O)O)c(I)c(N(C)C(C)=O)c1I | Metrizoic acid | 282 | – | – | – | – | – | 1 | –
Nc1ccc(S(=O)(=O)CCOS(=O)(=O)O)cc1 | – | 272.5 | – | – | -1.905 | – | – | – | –
CC(O)CN(C)CC(C)O (centres undefined) | 2-Propanol, 1,1'-(methylimino)bis- | -32 | – | -0.03 | – | -1.847 | -8.458 | – | –
CC(=O)Nc1c(I)c(NC(C)=O)c(I)c(C(=O)O)c1I | Diatrizoic acid | – | – | 3.3 | – | – | – | 0.975 | –
C[N+](C)(C)CCO.[Cl-] | 2-Hydroxy-N,N,N-trimethylethan-1-aminium chloride | – | – | -3.77 | – | -9.307 | – | – | –
C=C(C)C(=O)OCCCC(F)(F)C(F)(F)C(F)(F)C(F)(F)C(F)(F)C(F)(F)F | – | – | 232.9 | 6.18 | -6.769 | -1.346 | – | – | –
COc1c(N2CCNC(C)C2)c(F)cc2c(=O)c(C(=O)O)cn(C3CC3)c12 (centres undefined) | Gatifloxacin | – | – | 2.6 | -2.774 | – | – | – | –
Clc1ccc(Oc2ccc(Cl)c(Cl)c2Cl)cc1Cl | 2,3,3',4,4'-Pentachlorodiphenyl ether | 65 | – | – | -7.67 | – | – | – | –
Cl.Oc1ncccn1 | Pyrimidine-2-ol hydrochloride | – | – | -1.61 | – | -4.534 | – | – | –
CCCCC(CC)COP(=O)(O)OCC(CC)CCCC (centres undefined) | Bis(2-ethylhexyl) phosphate | – | 240 | 2.67 | -3.25 | – | – | – | –
COC(=O)C(C)(C)C#N | methyl 2-cyano-2-methylpropanoate | -8 | – | – | – | -0.243 | – | – | –
Clc1cc(Cl)c(Oc2c(Cl)c(Cl)cc(Cl)c2Cl)cc1Cl | 2,2',3,4',5,5',6-Heptachlorodiphenyl ether | 118 | – | – | -9.05 | – | – | – | –
CCNc1cccc(C)c1 | N-Ethyl-3-methylaniline | – | – | – | -2.078 | – | – | 0.1414 | –
CCCCCCCCOC(=O)CCCCCCC | Octanoic acid, octyl ester | – | – | 6.51 | -6.71 | – | – | – | –
C=C(C)C(=O)OCCOC(=O)c1c(CC(O)CCl)cccc1C(=O)O (centres undefined) | – | -39.65 | – | 2.28 | -2.806 | – | – | – | –
CC1COC(C)(CCC(=O)OCCCCOC(=O)CCC2(C)OCC(C)O2)O1 (centres undefined) | – | – | – | 1.9 | -1.978 | – | – | – | –
CC(C)CCCCCCCCCCOC(=O)CC(C)CC(C)(C)C (centres undefined) | Hexanoic acid, 3,5,5-trimethyl-, isotridecyl ester | – | – | – | -11.13 | -4.997 | – | – | –
COc1ccc(CCC#N)cc1OC | 3-(3,4-Dimethoxyphenyl)propanenitrile | 47.7 | – | 0.685 | -1.901 | -5.046 | – | – | –
CC12C=CC(=O)C=C1CCC1C2C(O)CC2(C)C1CC(O)C2(O)C(=O)CO (centres undefined) | 11,16,17,21-Tetrahydroxypregna-1,4-diene-3,20-dione | – | – | 0.8 | -2.665 | -11.65 | – | – | –
CCCCCCCCCCCCCCOC(=O)/C=C/C(=O)OCCCCCCCCCCCCCC | 2-Butenedioic acid (2E)-, 1,4-ditetradecyl ester | 45 | – | – | -7.008 | – | – | – | –
CCC(C)c1cc(C(C)(C)C)c(O)c(C(C)(C)C)c1 (centres undefined) | 4-(Butan-2-yl)-2,6-di-tert-butylphenol | – | – | – | -6.308 | -2.821 | – | – | –
OCC1CC2CC1C1CCCC21 (centres undefined) | (Octahydro-1H-4,7-methanoinden-5-yl)methanol | -31 | 266 | – | -2.619 | – | – | – | –
COc1ccc(C(Cl)=C(c2ccc(OC)cc2)c2ccc(OC)cc2)cc1 | Chlorotrianisene | – | – | 6.4 | -6.282 | – | – | – | 0
CCOC(=O)C1=NN(c2ccccc2)C(=O)C1 | Ethyl 5-oxo-1-phenyl-4,5-dihydro-1H-pyrazole-3-carboxylate | 183 | – | 2 | -3.255 | – | – | – | –
CC(C)(C)c1cc(-c2cc(C(C)(C)C)cc(C(C)(C)C)c2O)c(O)c(C(C)(C)C)c1 | – | 196.7 | – | – | – | -7.084 | – | – | –
Nc1c(I)c(C(=O)O)c(I)c(C(=O)NCC(O)CO)c1I (centres undefined) | AGN-PC-00GZVS | 163.7 | – | -3.7 | – | – | – | – | –
CCCCCC1CCC(C2CC=C(c3ccc(OCC)c(F)c3F)CC2)CC1 (centres undefined) | – | 57 | 403.2 | – | -6.512 | -8.078 | – | – | –
C[C@H]1C[C@@H]2[C@H]([C@@H](O)C[C@@]3(C)[C@H]2CC[C@]3(O)C(=O)CO)[C@@]2(C)C=CC(=O)C=C12 | Methylprednisolone | – | – | 1.5 | – | – | – | – | 7.051

The last 5 entries again:

compound | name | mp (°C) | boiling point (°C) | log Kow | water solubility (log10 mol/L) | log vapor pressure (log10 mmHg) | log H (log10 atm·m3/mol) | fu | hepatic Clint (µL/min/10^6 cells)
CCOC(=O)C1=NN(c2ccccc2)C(=O)C1 | Ethyl 5-oxo-1-phenyl-4,5-dihydro-1H-pyrazole-3-carboxylate | 183 | – | 2 | -3.255 | – | – | – | –
CC(C)(C)c1cc(-c2cc(C(C)(C)C)cc(C(C)(C)C)c2O)c(O)c(C(C)(C)C)c1 | – | 196.7 | – | – | – | -7.084 | – | – | –
Nc1c(I)c(C(=O)O)c(I)c(C(=O)NCC(O)CO)c1I (centres undefined) | AGN-PC-00GZVS | 163.7 | – | -3.7 | – | – | – | – | –
CCCCCC1CCC(C2CC=C(c3ccc(OCC)c(F)c3F)CC2)CC1 (centres undefined) | – | 57 | 403.2 | – | -6.512 | -8.078 | – | – | –
C[C@H]1C[C@@H]2[C@H]([C@@H](O)C[C@@]3(C)[C@H]2CC[C@]3(O)C(=O)CO)[C@@]2(C)C=CC(=O)C=C12 | Methylprednisolone | – | – | 1.5 | – | – | – | – | 7.051